# Earlier results as cited in patent publication US20170112865A1, “TREATMENT FOR MELANOMA” (The Board of Regents of the University of Texas System, priority 2014, published 2017).
# Test system: BRAFV600E/k mutant advanced or malignant melanoma
# Settings: MEKi class effect
structure (smiles),measurement,value
CC(=O)Nc1cccc(-n2c(=O)n(C3CC3)c(=O)c3c(Nc4ccc(I)cc4F)n(C)c(=O)c(C)c32)c1 [Trametinib],chorioretinopathy,< 1%
same,decreased ejection fraction,7%
